A short description of the assay: Binding affinity for endothelin B receptor by measuring its ability to displace [125I]-ET-3 from porcine cerebellar tissue.

The IC50 is the midpoint of a concentration-inhibition curve. In turn, `CCCCN(CCCC)C(=O)CN1C[C@H](c2cc(OC)c3c(c2)OCO3)[C@@H](C(=O)O)[C@@H]1CC(C)(C)CCC` [1-Dibutylcarbamoylmethyl-2-(2,2-dimethyl-pentyl)-4-(7-methoxy-benzo[1,3]dioxol-5-yl)-pyrrolidine-3-carboxylic acid] registered an IC50 of 16.7 µM.
